Experimental findings from patent US7528132B2, “Kinase inhibitors” (Schering Corporation, priority 2005, dated 2009) are described below.

By UniProt entry, the sequences of proteins in these tests, tags left out.
UniProt P31749, whole entry: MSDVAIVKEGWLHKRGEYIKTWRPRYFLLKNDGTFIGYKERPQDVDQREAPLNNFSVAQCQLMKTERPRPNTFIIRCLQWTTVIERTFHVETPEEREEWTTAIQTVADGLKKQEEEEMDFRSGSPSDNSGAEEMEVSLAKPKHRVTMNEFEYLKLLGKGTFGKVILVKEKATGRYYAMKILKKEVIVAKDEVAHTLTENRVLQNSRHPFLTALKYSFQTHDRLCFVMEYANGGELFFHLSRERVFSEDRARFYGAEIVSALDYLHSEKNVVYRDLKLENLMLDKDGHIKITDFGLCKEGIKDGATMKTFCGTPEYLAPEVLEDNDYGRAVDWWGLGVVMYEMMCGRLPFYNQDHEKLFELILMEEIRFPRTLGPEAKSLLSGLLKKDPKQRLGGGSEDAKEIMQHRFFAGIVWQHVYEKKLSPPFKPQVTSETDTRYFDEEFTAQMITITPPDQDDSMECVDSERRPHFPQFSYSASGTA

This experiment has as its target Akt1 (Homo sapiens, UniProt P31749). In words: Akt1 kinase assay (33P phosphorylation of biotinylated peptide, Flash plates). The class given is biochemical. The conditions noted are these: read-out: IC50 rating (AKT1 inhibition). An excerpt:
The assay described below measures the phosphorylation of a biotinylated peptide by active recombinant Akt1 and other kinase isoforms. The biotinylated peptide contains a consensus sequence derived from Akt substrate Gsk3 (Glycogen synthase kinase 3). The ^33P-labeled peptide substrate was captured by streptavidin-coated Flash plates.
Active recombinant Akt1 was expressed in Sf9 insect cells and purified as described by Kumar et al., Biochim. Biophys. Acta. Jun. 15, 2001, 1526(3), 257-268. Biotinylated peptide of the sequence Bio-ahx-RPRAASF was purchased from Syn Pep (Dublin, Calif., USA).
Cloning and Expression of Human Akt1 Sf9 Cells
Human Akt1 cDNA was amplified from a marathon-ready human lung cDNA library (Clonetech) using nested oligo primers as described below. The first round of amplification was carried out using the following primers; Akt1F1 ([…]) and Akt1R1 (TCCATC […]) and for the second round amplification, the primers of the following sequence were used; Akt1F2 (GGATCCTCGG […]) and AKT1R2 (GGTACCATCGTC […]). The PCR product was subcloned into pCRScript plasmid as a BamHI/KpnI fragment and the sequence of the cDNA was confirmed by DNA sequencing. This plasmid was used as a template for reamplification of Akt1 using appropriate primers for subcloning into pBlueBaHis2B into BamH1/EcoRI sites to generate an in frame fusion to (His)6 tag and an anti-Xpress antibody epitope tag at the N-terminus. This construct was sequenced to verify the junction sequences and used for generating a recombinant baculovirus. Growth of the recombinant virus, amplification and determination of viral titer were carried out according to the instructions from the manufacturer (InVitrogen, CA).
Purification of Akt1 from Sf9 Cells
Viral stocks were used to infect large scale Sf9 cells at a multiplicity of infection (MOI) of 2.5. Cells were maintained at 27° C. for 60 h and okadaic acid was added to the cultures to a concentration of 50 nM. Cells were harvested 4 h hours later by centrifugation at 1200 rpm for 30 min followed by freezing at −80° C. until further use. All purification steps were carried out at 4° C. Whole cell pellets were suspended in buffer A (20 mM sodium phosphate buffer pH 7.8, 500 mM NaCl, 1 mM sodium vanadate, 5 mM sodium fluoride, 40 mM β-glycerophosphate, 10 mM imidazole and protease inhibitor cocktail) and lysed using a microfluidizer. The cell extract was centrifuged at 16,000×g for 10 min to remove the debris and directly loaded onto Ni-NTA Superflow resin using a FPLC pump operated at 1 ml/min. The column was washed once with buffer A, once with wash buffer B (20 mM sodium phosphate pH 6.0, 1 mM sodium vanadate, 5 mM sodium fluoride and protease cocktail) and once with wash buffer B containing 0.05% Tween-20 followed by washing with buffer A until OD260 returned to basal level. Proteins were eluted with buffer A containing 200 mM imidazole. Fractions were analyzed by electrophoresis on 10% denaturing polyacrylamide gels and fractions containing 85% pure protein band at 60 KDa were pooled and dialyzed against buffer C (20 mM Tris-HCl pH 7.5, 0.5 mM EDTA,-2 mM DTT, 145 mM NaCl, 0.1 mM sodium vanadate, 5 mM sodium fluoride, 10 mM, β-glycerophosphate and 20% glycerol). Purified protein was stored as aliquots at −80° C. Protein concentrations were determined using BCA protein assay reagent A (Catalog #23228). To examine the identity of the proteins, 2 μg of purified protein was electrophoresed on SDS-polyacrylamide gels and stained with coomassie blue dye or transferred to nitrocellulose membrane and probed with anti-Akt and anti-phospho-specific Akt antibodies using enhanced chemiluminescence (ECL) reagent according to the protocol described by the manufacturer (Amersham).
The kinase assay was performed in 96 well plates at room temperature. Assay solutions and plates were preincubated at room temperature for 5 min. […]

One may read the IC50 as the midpoint of a concentration-inhibition curve. Turning to `Cc1n[nH]c2ccc(-c3nnc(N(Cc4cccc(F)c4)Cc4cccc(F)c4)c(N4CCN[C@@H](C(C)C)C4)n3)cc12`, the IC50 is greater than 1000 nM.
The result for `Cc1n[nH]c2ccc(-c3nnc(NCc4cccc(Br)c4)c(N4CCN[C@@H](C(C)C)C4)n3)cc12` reads less than 100 nM; that for `Cc1n[nH]c2ccc(-c3nnc(N)c(N4CCN[C@H](C(C)C)C4)n3)cc12`, 100 to 1000 nM.
For `CCC[C@H]1CN(c2nc(-c3ccc4[nH]nc(C)c4c3)nnc2N)CCN1`, the concentration for half-maximal inhibition (IC50) is less than 100 nM.
The result for `COc1cccc(CNc2nnc(-c3ccc4[nH]nc(C)c4c3)nc2N2CCN[C@@H](C(C)C)C2)c1` reads less than 100 nM.
`COc1ccccc1CNc1nnc(-c2ccc3[nH]nc(C)c3c2)nc1N1CCN[C@@H](C(C)C)C1`: the half-maximal inhibitory concentration (IC50) was less than 100 nM.
The result for `Cc1n[nH]c2ccc(-c3nnc(NCc4ccccc4-c4ccccc4)c(N4CCN[C@@H](C(C)C)C4)n3)cc12` reads less than 100 nM.
Turning to `Cc1n[nH]c2ccc(-c3nnc(N(Cc4cccc(Br)c4)Cc4cccc(Br)c4)c(N4CCN[C@@H](C(C)C)C4)n3)cc12`, the IC50 was greater than 1000 nM.
The result for `Cc1n[nH]c2ccc(-c3nnc(NCc4cccc([N+](=O)[O-])c4)c(N4CCN[C@@H](C(C)C)C4)n3)cc12` reads 100 to 1000 nM.
The result for `Cc1n[nH]c2c(C)cc(-c3nncc(N4CCN[C@@H](Cc5ccccc5)C4)n3)cc12` reads greater than 1000 nM; that for `Cc1n[nH]c2ccc(-c3nnc(NCc4cccc(-c5ccccc5)c4)c(N4CCN[C@@H](C(C)C)C4)n3)cc12`, 100 to 1000 nM.
The result for `Cc1n[nH]c2ccc(-c3nnc(N(Cc4ccccc4-c4ccccc4)Cc4ccccc4-c4ccccc4)c(N4CCN[C@@H](C(C)C)C4)n3)cc12` reads greater than 1000 nM; that for `Cc1n[nH]c2ccc(-c3nnc(NCc4cccc(F)c4)c(N4CCN[C@@H](C(C)C)C4)n3)cc12`, less than 100 nM; that for `CNC1CCN(c2nc(-c3ccc4[nH]nc(C)c4c3)nnc2NCc2ccccc2)C1` (stereo not drawn), 100 to 1000 nM.
For the compound `Cc1n[nH]c2ccc(-c3nnc(N)c(N4CCN[C@H](Cc5ccccc5)C4)n3)cc12`, the concentration for half-maximal inhibition (IC50) was in the range of 100 to 1000 nM.
The result for `Cc1n[nH]c2ccc(-c3nnc(N(Cc4ccccc4Cl)Cc4ccccc4Cl)c(N4CCN[C@@H](C(C)C)C4)n3)cc12` reads 100 to 1000 nM.
The result for `Cc1n[nH]c2ccc(-c3nnc(NCc4ccccc4Cl)c(N4CCN[C@@H](C(C)C)C4)n3)cc12` reads less than 100 nM; that for `Cc1n[nH]c2ccc(-c3nnc(NC(C)c4ccccc4)c(N4CCN[C@@H](C(C)C)C4)n3)cc12` (stereo partly drawn), less than 100 nM.
